High-throughput results as filed in PubChem.
Rows were chosen to be rich in hits. Some 16% of all compounds tested hit in one or more screens of this group.
TDP1 cell CPT – DT40-hTDP1 cell growth loss with CPT. chicken DT40 Tdp1-/-;hTDP1 cells + 20 nM CPT, ATP luminescence, 48 h. Potency, µM (doses to about 46.2 µM), hits mostly inhibitors. hit rate 12% among 420,000; note: nearly all actives have a fitted effect of over 55% in size
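Chicken DT40 Tdp1-/- cells stably complemented with human TDP1 were seeded at 400 cells/well in medium containing 20 nM camptothecin, exposed to pin-transferred compounds, and grown at 37 °C for at least 48 hr. Viability was read as ATP luminescence.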
uPA surface inh – blocks generation of uPA at the cell surface; cell surface uPA generation assay, qHTS; Potency, µM (doses to about 38.3 µM), usual class: inhibitors; hit rate 0.31% among 330,000; active = well fitted inhibition curve with a large enough effect; inconclusive = small, poorly fitted or top-dose-only effect; inactive = no such curve, though single readings can be large or run the other way; tested in mouse RAW 264.7 cells; note: nearly all actives have a fitted effect of over 55% in size
miR-21 FLuc – miR-21 reporter, rising signal. HeLa miR-21 FLuc reporter, luciferase, 48 h. Potency, µM (titrated, usually from 38.3 µM). 340,000 tested, under 10 active. AID 2288; active = well fitted rising curve with a large enough effect; inconclusive = small, poorly fitted or top-dose-only effect; inactive = no such curve, though single readings can be large or run the other way;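 also: miR-21 action dims this reporter so a rising signal means less miR-21 action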
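Compounds were titrated across several concentrations (up to approximately 40 uM) and incubated 48 hours with HeLa miR-21-FLuc reporter cells (miR-21 target sequence downstream of FLuc, endogenous miR-21). Readout was firefly luciferase luminescence after lytic detection reagent.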
DT40 TDP1 no CPT – qHTS for Inhibitors of human tyrosyl-DNA phosphodiesterase 1 (TDP1): qHTS in cells in absence of CPT | DT40 Tdp1-/- hTDP1 cells, no CPT, ATP luminescence, 48 h | Potency, µM (series often up to 46.2 µM), actives largely listed as inhibitors | hit rate 15% among 420,000; note: nearly all actives have a fitted effect of over 55% in size
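Seeded 400 DT40-hTDP1 cells/well (vehicle DMSO, no 20 nM CPT); pinned compounds; ≥48 hr at 37 °C; CellTiter-Glo luminescence as viability measure.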
TDP1 inh – blocks human tyrosyl-DNA phosphodiesterase 1. hit rate 0.28% among 350,000. recombinant TDP1, AlphaScreen DNA substrate cleavage. Q9NUW8. Potency, µM (highest dose often 130 µM), hits mostly inhibitors; note: nearly all actives have a fitted effect of over 40% in size
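Here, a 5' biotin and 3' phosphotyrosine-FITC DNA oligonucleotide reports Tdp1 activity: intact substrate bridges AlphaScreen beads, while cleavage leaves a 3' phosphate and drops signal. All incubations at room temperature.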
Large screens that a line does not name were inactive. Unless noted, calls come from the whole dose curve; as a rule, active = well fitted curve in the direction sought with a large enough effect; inconclusive = small, poorly fitted or top-dose-only effect, or another doubt; inactive = no such curve, though single readings can be large; an effect the other way counts as inactive or inconclusive.

CCCCn1c(=O)[nH]c(=O)c2c1nc(-c1ccccc1F)n2Cc1ccccc1OC	TDP1 cell CPT 23µM, DT40 TDP1 no CPT inconclusive (no result: uPA surface inh)
Cc1ccc(-c2nc3c(c(=O)[nH]c(=O)n3Cc3ccccc3)n2Cc2ccccc2)o1	TDP1 cell CPT inconclusive, DT40 TDP1 no CPT inconclusive
CCCn1c(-c2cccc([N+](=O)[O-])c2)nc2c1c(=O)[nH]c(=O)n2Cc1ccccc1	TDP1 cell CPT 21µM, DT40 TDP1 no CPT 16µM
Cc1ccc(-c2nc3c(c(=O)[nH]c(=O)n3Cc3ccccc3)n2C)o1	TDP1 inh 40µM
CCCCn1c(=O)[nH]c(=O)c2c1nc(-c1ccsc1)n2Cc1ccccc1	TDP1 cell CPT inconclusive, DT40 TDP1 no CPT 29µM
Cc1ccc(N(CC(=O)NC2CCCC2)C(=O)Cn2nnc(-c3ccccc3F)n2)cc1	none (no result: TDP1 inh)
CCn1c(SCC(=O)OC(C)C)nnc1-c1cccc(Cl)c1	none
Cc1nnc(NC(=O)c2ccc(Br)o2)s1	none (no result: TDP1 inh)
COc1ccc(C(=O)c2sc(Nc3ccccc3)nc2N)cc1	TDP1 cell CPT inconclusive, DT40 TDP1 no CPT inconclusive
COc1ccc(C(=O)c2sc(Nc3ccccc3F)nc2N)cc1	TDP1 cell CPT inconclusive, DT40 TDP1 no CPT 12µM (no result: TDP1 inh)
COc1cc2c(cc1NC(=O)COC(=O)CNS(=O)(=O)c1ccc(C)cc1)oc1ccccc12	none
COc1cc2c(cc1NC(=O)C1CCCO1)oc1ccccc12 (configuration not stated)	TDP1 cell CPT inconclusive, DT40 TDP1 no CPT inconclusive
COC(=O)c1c(NC(=O)COC(=O)[C@@H](NS(=O)(=O)c2cccc(Cl)c2)C(C)C)sc2c1CCC2	TDP1 cell CPT inconclusive, DT40 TDP1 no CPT inconclusive
COc1cc2c(cc1NC(=O)c1cccc(S(=O)(=O)N(C)C)c1)oc1ccccc12	TDP1 cell CPT 10µM, DT40 TDP1 no CPT 15µM
CC(C)[C@H](NS(=O)(=O)c1cccc(Cl)c1)C(=O)OCC(=O)NC(=O)CN1CCCC1=O	TDP1 inh 25µM (no result: miR-21 FLuc)
CC(C)[C@H](NS(=O)(=O)c1ccc(Cl)cc1)C(=O)OCC(=O)NCCN1C(=O)CSC1=O	none
COc1cc2c(cc1NC(=O)COC(=O)[C@@H](NS(=O)(=O)c1cccc(Cl)c1)C(C)C)oc1ccccc12	TDP1 cell CPT inconclusive, DT40 TDP1 no CPT 16µM
COC(=O)c1sc(N)c(C(=O)OC)c1COC(=O)[C@@H](NS(=O)(=O)c1cccc(Cl)c1)C(C)C	TDP1 cell CPT inconclusive, DT40 TDP1 no CPT 18µM
CCOc1ccc(CCNC(=O)COC(=O)CCC(=O)c2cccs2)cc1OCC	none
COc1ccc(S(=O)(=O)N[C@@H](C)C(=O)OCC(=O)Nc2cc3oc4ccccc4c3cc2OC)cc1	TDP1 cell CPT inconclusive, uPA surface inh inconclusive, DT40 TDP1 no CPT 15µM
COc1ccc(OCC(=O)Nc2cc3oc4ccccc4c3cc2OC)cc1	none
CC(C)c1cc(C(C)C)c(S(=O)(=O)N2c3ccccc3[C@@]3(Br)C[C@H]4C(=O)N[C@@H](Cc5ccccc5)C(=O)N4[C@@H]23)c(C(C)C)c1	TDP1 cell CPT 12µM, DT40 TDP1 no CPT 12µM (no result: miR-21 FLuc, TDP1 inh)
O=C1N[C@@H](Cc2ccccc2)C(=O)N2[C@@H]3N(S(=O)(=O)c4ccccc4)c4ccccc4[C@]3(Br)C[C@@H]12	TDP1 cell CPT inconclusive, DT40 TDP1 no CPT inconclusive (no result: miR-21 FLuc, TDP1 inh)
Cc1ccc(CN(Cc2ccco2)C(=O)c2ccc(OCC(C)C)cc2)cc1	TDP1 cell CPT inconclusive, DT40 TDP1 no CPT 16µM (no result: uPA surface inh)
CCOc1ccc(C(=O)N(Cc2ccc(C(C)C)cc2)Cc2ccco2)cc1	TDP1 cell CPT inconclusive, DT40 TDP1 no CPT 21µM (no result: uPA surface inh)
COc1ccc(CNC(=O)N2CCN(c3ccc(F)cc3)CC2)cc1	none (no result: TDP1 inh)
S=C1NCN(Cc2ccccc2)CN1C1CCCCC1	TDP1 cell CPT inconclusive, DT40 TDP1 no CPT inconclusive
COc1ccc(OC)c(C2(O)CSC(=Nc3cccnc3)N2Cc2ccco2)c1 (configuration not stated)	TDP1 cell CPT 15µM, DT40 TDP1 no CPT 18µM (no result: uPA surface inh)
O=C(COc1ccc(Br)cc1)Nc1ccc(CN2CCOCC2)cc1	TDP1 cell CPT inconclusive, DT40 TDP1 no CPT inconclusive
O=C(C=C=Nc1ccccc1)C(=O)N=C=Cc1ccccc1	TDP1 cell CPT 1.8µM, miR-21 FLuc inconclusive, DT40 TDP1 no CPT 4.6µM
CCCCn1[nH]c(-c2ccccc2)cc1=O	TDP1 cell CPT inconclusive, DT40 TDP1 no CPT 18µM
COc1ccc2nc(Cl)c(C=O)c(N3CCOCC3)c2c1	TDP1 cell CPT inconclusive, DT40 TDP1 no CPT 15µM (no result: uPA surface inh, miR-21 FLuc, TDP1 inh)
COc1ccc2c(-c3ccccc3)cc(N3CCOCC3)nc2c1	DT40 TDP1 no CPT inconclusive (no result: TDP1 inh)
